ChEMBL document CHEMBL2407079, “Potent DGAT1 Inhibitors in the Benzimidazole Class with a Pyridyl-oxy-cyclohexanecarboxylic Acid Moiety” (ACS Med Chem Lett, 2013)

Target: T1, Diacylglycerol O-acyltransferase 1 (Homo sapiens, UniProt O75907)
T1 sequence (O75907 whole entry): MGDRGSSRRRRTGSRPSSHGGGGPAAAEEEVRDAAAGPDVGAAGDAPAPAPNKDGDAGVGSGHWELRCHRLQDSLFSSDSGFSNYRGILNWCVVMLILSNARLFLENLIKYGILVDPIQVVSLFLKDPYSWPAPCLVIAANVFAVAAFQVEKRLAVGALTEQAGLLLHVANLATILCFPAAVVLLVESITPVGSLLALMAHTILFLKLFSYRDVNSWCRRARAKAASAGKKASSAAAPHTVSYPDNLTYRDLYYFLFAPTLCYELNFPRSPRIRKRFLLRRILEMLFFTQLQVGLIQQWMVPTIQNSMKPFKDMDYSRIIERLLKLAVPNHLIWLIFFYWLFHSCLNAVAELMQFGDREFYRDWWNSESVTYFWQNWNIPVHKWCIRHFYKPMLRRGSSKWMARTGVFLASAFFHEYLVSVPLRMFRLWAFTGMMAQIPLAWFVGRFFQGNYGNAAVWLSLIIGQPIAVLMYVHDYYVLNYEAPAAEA
Assay: Inhibition of human DGAT1

IC50 [nM]	Compound
32	Cc1ccc2[nH]c(-c3ccc(-c4ccc(O[C@H]5CC[C@@H](C(=O)O)CC5)nc4)nc3)nc2n1
54	Cc1ccc2[nH]c(-c3ccc(-c4ccc(O[C@H]5CC[C@H](C(=O)O)CC5)nc4)nc3)nc2n1
